# PubChem BioAssay AID1066 (SRMLSC, 2008)
# Only a part is listed here, and it is no random draw. Activity calls are given as the source filed them.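 The calls were made as follows: active = inhibition above a set limit, the median over all tested compounds plus 3 SD (cut at about 9.5% in these data); inconclusive = no clear call, values can overlap the other calls; inactive = the rest.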
# System: HMG-CoA reductase (Enterococcus faecalis, mvaE)
# Assay: class II HMG-CoA reductase enzyme inhibition – biochemical, Enterococcus faecalis, primary screen (AID 1066);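 also: enzyme runs in reverse so mevalonate oxidation gives rising NADPH absorbance; 0% = complete reaction with DMSO and 100% = background rate lacking mevalonate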
# Conditions: purified E. faecalis HMGR, NADPH absorbance 340 nm kinetic; at 10 µM; stronger effect = higher value
row,Compound,inhibition
1,CCCOc1ccc(NP(C)(=O)Oc2ccc(Cl)cc2)cc1 (stereo not given),inactive: 1.51%
2,O=[N+]([O-])c1cc([N+](=O)[O-])c(-n2nnc3ccccc32)c([N+](=O)[O-])c1,inactive: -1.31%
3,Cc1nc2ccc3ccccc3c2s1.O=[N+]([O-])c1cc([N+](=O)[O-])c(O)c([N+](=O)[O-])c1,inactive: -0.02%
4,CCOP(C)(=S)SCC(=O)NC(C)(CC)C(=O)O (stereo not given),inactive: 0.67%
5,CP(=O)(Nc1ccc2c(c1)OCCO2)Oc1ccccc1 (stereo not given),inactive: -4.16%
6,Cc1ccccc1NP(C)(=O)Nc1ccccc1C,inactive: -12.1%
7,COc1ccc(OP(C)(=O)Nc2cccc(Br)c2)cc1 (stereo not given),inactive: 1.56%
8,COc1ccc(NP(C)(=O)Oc2ccccc2OC)cc1 (stereo not given),inactive: 3.53%
9,CN(C)CCOC(=O)C(O)(c1ccccc1)C1CCCCC1 (stereo not given),inactive: 0%
10,O=[N+]([O-])c1cc([N+](=O)[O-])c(NCC2CCS(=O)(=O)C2)c([N+](=O)[O-])c1 (stereo not given),inactive: -7.33%
11,COc1ccc(OP(C)(=O)Nc2ccc(SC(F)(F)F)cc2)cc1 (stereo not given),inactive: -3.13%
12,CCOC(=O)c1ccc(NP(C)(=O)Oc2ccc(F)cc2)cc1 (stereo not given),inactive: -0.25%
13,CCN(CC)CCCOC(=O)C(O)(c1ccccc1)C1CCCCC1 (stereo not given),inactive: -1.13%
14,CP(=O)(Nc1ccccc1)Oc1ccc(F)cc1 (stereo not given),inactive: 4.07%
15,CC(C)c1ccc(OP(C)(=O)Nc2ccc(SC(F)(F)F)cc2)cc1 (stereo not given),inactive: -2.37%
16,CP(=O)(Nc1ccccc1F)Oc1ccccc1 (stereo not given),inactive: -3.93%
17,O=C(OCCN1CCN(CCOCc2ccccc2)CC1)C(O)(c1ccccc1)c1ccccc1,inactive: -3.37%
18,CN(C)CCOC(=O)C(O)(c1ccccc1)C1CCCC1 (stereo not given),inactive: 1.25%
19,COc1ccc(OP(C)(=O)Nc2ccccn2)cc1 (stereo not given),inactive: -3.28%
20,O=[N+]([O-])c1cc([N+](=O)[O-])c(Nc2ccccn2)c([N+](=O)[O-])c1,inactive: -1.71%

row,Compound,inhibition
1,Cc1c(NP(C)(=O)Oc2ccc(C(C)C)cc2)c(=O)n(-c2ccccc2)n1C (stereo not given),inactive: -6.91%
2,CCc1ccc(OP(C)(=O)O)cc1,inactive: -11.1%
3,CP(=O)(Nc1ccccn1)Oc1ccccc1 (stereo not given),inactive: -1.58%
4,COc1ccccc1OP(C)(=O)Nc1ccc(C)cc1C (stereo not given),inactive: -2.46%
5,Cc1cc(C)cc(OP(C)(=O)Nc2cccc(C(F)(F)F)c2)c1 (stereo not given),inactive: -8.48%
6,COc1ccc(OP(C)(=O)Nc2ccccc2Br)cc1 (stereo not given),inactive: -4.68%
7,COc1ccccc1OP(C)(=O)Nc1ccc(C)c(C)c1 (stereo not given),inactive: -5.12%
8,Cc1nc2ccc3ccccc3c2o1.O=[N+]([O-])c1cc([N+](=O)[O-])c(O)c([N+](=O)[O-])c1,inactive: -0.29%
9,CP(=O)(OCCOc1ccccc1)OCCOc1ccccc1,inactive: 0.95%
10,CP(=O)(Nc1ccc(Cl)cc1Cl)Oc1ccccc1 (stereo not given),inactive: 0.93%
11,CP(=O)(OC12CC3CC(CC(C3)C1)C2)OC12CC3CC(CC(C3)C1)C2,inactive: -1.43%
12,CCOC(=O)c1ccc(NP(C)(=O)Oc2ccc(Cl)cc2)cc1 (stereo not given),inactive: -0.04%
13,CCN(CC)CC(O)COC(=O)C(O)(c1ccccc1)C1CCCCC1 (stereo not given),inactive: -3.41%
14,COc1ccc(OP(C)(=O)Nc2ccc(Br)cc2)cc1 (stereo not given),inactive: 2.13%
15,CP(=O)(Oc1ccccc1)N1CCOC1=O (stereo not given),inactive: -10.4%
16,CCc1ccc(OP(C)(=O)Nc2cccnc2)cc1 (stereo not given),inactive: 0.99%
17,CP(=O)(Nc1ccc(Cl)cc1)Oc1ccc(F)cc1 (stereo not given),inactive: -0.14%
18,CC(C)(C)c1ccc(OP(C)(=O)O)cc1,inactive: -1.06%
19,COc1ccccc1OP(C)(=O)Nc1ccccc1Br (stereo not given),inactive: -0.32%
20,CN(C)C(=O)c1c([N+](=O)[O-])cc([N+](=O)[O-])cc1[N+](=O)[O-],inactive: -1.32%
